Results: patent US12502362B2, “Inhibitors of nucleotidyltransferase superfamily enzymes as antibiotics” (priority 2017, dated 2025)

Columns and labels:
[1] = test system: S. aureus ATCC strains and MRSA; assay type: cell-based, Staphylococcus aureus; details: number of resistant strains out of 21 MRSA strains
[2] = test system: Coagulase negative Staphylococcus; assay: Antibiotic susceptibility of coagulase negative Staphylococcus strains; assay type: cell-based
[3] = test system: Acinetobacter baumannii (Abl, from a patient); assay: microbe, parasite or virus in culture; assay type: cell-based; details: read-out: MIC80 A. baumannii
Morganella morganii = assay: microbe, parasite or virus in culture; assay type: cell-based
Klebsiella pneumoniae = assay: microbe, parasite or virus in culture; assay type: cell-based
MDR Enterobacteriaceae = assay: organism not typed; assay type: cell-based; details: read-out: MIC80 on MDR Enterobacteriaceae

| SMILES | MRSA strains resistant [1] | Antibiotic susceptibility ([2]; CNS1 (Coagulase negative Staphylococcus)) | Antibiotic susceptibility ([2]; CNS2 (Coagulase negative Staphylococcus)) | MIC80 [3] | MIC80 (Morganella morganii) | MIC80 (Klebsiella pneumoniae; Klebsiella pneumoniae) | MIC80 (Klebsiella pneumoniae; Kp6 (Klebsiella pneumonia)) | MIC80 (MDR Enterobacteriaceae) |
| --- | --- | --- | --- | --- | --- | --- | --- | --- |
| CCC[C@@H]1C[C@@H](C(=O)N[C@@H]([C@H]2O[C@H](SC)[C@H](O)[C@@H](O)[C@H]2O)[C@H](C)Cl)N(C)C1 [CLI, clindamycin] | 12/21 | R | S | – | – | – | – | – |
| O=c1cccccc1S [Compound 363] | – | – | – | > 100 µM | > 33.3 µM | > 33.3 µM | >33.3 µM | ≤ 20 µM |
